Source: ChEMBL document CHEMBL3864151, “Discovery of imidazopyridazines as potent Pim-1/2 kinase inhibitors” (Bioorg Med Chem Lett, 2016)

Protein sequences, listed by entry. Tags and fused reporters are not part of them. Lines headed by an entry give the natural chain unless they say otherwise; changes in a name come on top.
UniProt P11309, whole entry: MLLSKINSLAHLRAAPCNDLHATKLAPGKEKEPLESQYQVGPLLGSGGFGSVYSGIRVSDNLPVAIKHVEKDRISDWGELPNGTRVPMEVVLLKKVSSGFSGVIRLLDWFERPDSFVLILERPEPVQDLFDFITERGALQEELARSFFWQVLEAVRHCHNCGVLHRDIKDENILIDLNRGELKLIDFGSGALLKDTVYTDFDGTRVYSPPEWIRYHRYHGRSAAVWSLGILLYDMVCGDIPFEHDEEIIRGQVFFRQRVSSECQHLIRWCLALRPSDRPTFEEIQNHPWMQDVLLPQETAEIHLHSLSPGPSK
UniProt Q9P1W9: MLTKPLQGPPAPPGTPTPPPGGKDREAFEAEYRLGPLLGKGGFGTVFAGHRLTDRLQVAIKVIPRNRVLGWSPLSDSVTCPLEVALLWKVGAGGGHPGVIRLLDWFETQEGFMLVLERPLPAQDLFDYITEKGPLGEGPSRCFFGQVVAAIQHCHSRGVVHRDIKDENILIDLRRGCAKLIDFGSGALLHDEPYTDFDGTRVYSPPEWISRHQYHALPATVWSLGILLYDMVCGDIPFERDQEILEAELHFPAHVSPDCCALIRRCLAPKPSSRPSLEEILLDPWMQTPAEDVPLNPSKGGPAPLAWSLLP

What was measured:
[1] = molecular target: Serine/threonine-protein kinase pim-1 (Homo sapiens, UniProt P11309); test: Inhibition of recombinant Pim1 (unknown origin) by electrochemiluminescence assay
[2] = molecular target: Serine/threonine-protein kinase PIM (Homo sapiens, UniProt P11309+Q9P1W9+Q86V86); test: Inhibition of Pim1/2 in human KMS-12 cells assessed as decrease in BAD phosphorylation at Ser112 by Western blot method; format: cell-based

Structure (SMILES)	IC50 [1] [nM]	IC50 [2] [nM]
C[C@H]1[C@@H](N)CCCN1c1ccncc1Nc1ncc2ccc(-c3c(F)cccc3F)nn12	0.51	2530
C[C@]1(N)CCCN(c2ccncc2Nc2ncc3ccc(-c4c(F)cccc4F)nn23)C1 (racemic)	10	–
C[C@@H]1[C@@H](N)CCCN1c1ccncc1Nc1ncc2ccc(-c3c(F)cccc3F)nn12	0.062	221
